Test results taken from article PMC4823272 (Frontiers in Microbiology, 2016).

Test system: HA of the H1N1 strain (A/New Caledonia/20/99)
Experiment: AFM binding of H1 HA to lipid membranes (HA-bound area)
Set-up: species or system influenza virus A/New Caledonia/20/99 (H1N1)
Conditions: [HA] = 2.4–24 nM, 25°C, 1 h

Question: `CCCCCCCCCCCCCCCC(=O)OCC(COP(=O)(O)OCCN)OC(=O)CCCCCCCCCCCCCCC` (centres unmarked) [DPPE, dipalmitoylphosphatidylethanolamine] was tested. Which “H1 HA binding, result in words” value (HA-bound area, n = 3) did it give?
Answer: no significant binding

Question: What about the “HA-bound area (upper bound over tested HA concentrations)” value (binarized images) of the same compound?
Answer: ≤ 10%
